# Values quoted from earlier work, collected in paper PMC7346179, “Fe Porphyrin-Based SOD Mimic and Redox-Active Compound, (OH)FeTnHex-2-PyP^4+, in a Rodent Ischemic Stroke (MCAO) Model: Efficacy and Pharmacokinetics as Compared to Its Mn Analogue, (H2O)MnTnHex-2-PyP^5+” (Antioxidants, 2020).
# Conditions: silica plates, acetonitrile/KNO3(sat)/water = 8:1:1; cited from earlier work
substance,measurement,value
monohydroxo Fe(III) meso-tetrakis(N-n-hexylpyridinium-2yl)porphyrin [FeHex],Rf (thin-layer chromatographic lipophilicity),0.597
